Measured values published in US6541463B1, “Inhibitors of type 5 and type 3 17β-hydroxysteroid dehydrogenase and methods for their use” (Endorecherche, Inc., priority 1998, dated 2003).
Like-named read-outs stand apart in the source and are kept apart here.

The chains behind the UniProt entries cited, without tags or fusion partners.
UniProt P37059, whole entry: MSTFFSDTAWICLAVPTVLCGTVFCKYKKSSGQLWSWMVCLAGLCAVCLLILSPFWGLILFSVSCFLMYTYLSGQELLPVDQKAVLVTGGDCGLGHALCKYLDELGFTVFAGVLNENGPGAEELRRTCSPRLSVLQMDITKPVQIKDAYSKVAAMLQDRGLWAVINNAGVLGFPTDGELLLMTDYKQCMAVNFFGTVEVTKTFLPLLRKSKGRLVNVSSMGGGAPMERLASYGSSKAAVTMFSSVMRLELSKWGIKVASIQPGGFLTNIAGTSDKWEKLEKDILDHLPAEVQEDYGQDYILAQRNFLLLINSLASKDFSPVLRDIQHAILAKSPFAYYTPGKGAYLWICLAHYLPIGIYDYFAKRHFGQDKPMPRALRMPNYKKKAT
UniProt P42330, whole entry: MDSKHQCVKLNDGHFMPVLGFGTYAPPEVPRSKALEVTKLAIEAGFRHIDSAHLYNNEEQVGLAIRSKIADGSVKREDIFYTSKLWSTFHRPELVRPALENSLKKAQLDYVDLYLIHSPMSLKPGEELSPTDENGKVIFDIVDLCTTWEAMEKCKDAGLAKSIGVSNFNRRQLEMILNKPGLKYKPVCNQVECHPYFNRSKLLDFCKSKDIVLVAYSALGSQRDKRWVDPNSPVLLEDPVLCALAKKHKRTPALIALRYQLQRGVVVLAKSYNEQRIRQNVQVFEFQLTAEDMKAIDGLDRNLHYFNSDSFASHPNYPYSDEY

Key:
[1] = In vivo assay of oral bioavailability (plasma AUC 0-7 h by LCMS/MS)
[2] = tested on: Shionogi mouse mammary carcinoma cells; assay: Antiandrogenic activity: inhibition of DHT-induced proliferation of Shionogi cells; assay type: cell-based; details: for IC50: read-out: Antiandrogenic Activity Shionogi, DHT [IC50]; for Antiandrogenic Activity Shionogi, DHT / IC50: DHT
[3] = tested on: Shionogi mouse mammary carcinoma cells; assay: Androgenic activity: stimulation of proliferation of Shionogi cells
[4] = target: human type 2 17β-hydroxysteroid dehydrogenase (Homo sapiens, UniProt P37059); assay: Enzymatic assay for type 2 17β-HSD; details: for Inhibition Type 2 17β-HSD Activity [% Inh.]: at 3.10^-8M
[5] = target: human type 5 17β-hydroxysteroid dehydrogenase (Homo sapiens, UniProt P42330); assay: Inhibition of human type 5 17β-HSD activity in transfected 293 cells; assay type: cell-based; details: read-out: Inhibition Type V 17β-HSD IC50
ZR-75-1 cells [6] = assay: Estrogenic activity: stimulation of proliferation of ZR-75-1 cells; assay type: cell-based, human
ZR-75-1 cells [7] = assay: Antiestrogenic activity: inhibition of E2-induced proliferation of ZR-75-1 cells; design: ZR-75-1 Activity, E2 / ZR-75-1 Activity E2 E^−6: unit not given here

SMILES	Oral Bioavailability AUC 0-7h ([1]; AUC 0-7h)	Antiandrogenic Activity Shionogi, DHT ([2]; E^−6)	Antiandrogenic Activity Shionogi, DHT ([2]; E^−7)	Androgenic Activity Shionogi, Basal ([3]; E^−6)	Androgenic Activity Shionogi, Basal ([3]; E^−7)	Inhibition Type 2 17β-HSD Activity [% Inh.] [4]	IC50 [5]	IC50 [2]	ZR-75-1 Activity, Basal (ZR-75-1 cells [6]; E^−6)	ZR-75-1 Activity, Basal (ZR-75-1 cells [6]; E^−8)	ZR-75-1 Activity, E2 (ZR-75-1 cells [7]; E2)	ZR-75-1 Activity, E2 (ZR-75-1 cells [7]; E2, E^−8)	Oral Bioavailability AUC 0-7h ([1]; Table 4′, oral, rat plasma)	Antiandrogenic Activity Shionogi DHT E^−6 ([2]; Table 4′, DHT-induced proliferation, E^−6 (10^−6 M))	IC50 ([4]; read-out: Inhibition Type 2 17β-HSD Activity IC50, Table 4′)	IC50 ([5]; Table 4′)
CCN(C)C(=O)[C@@]1(OC(=O)C(C)C)CCC2C3C=C(C)C4=CC(=O)CC[C@]4(C)C3CC[C@@]21C (stereo partly drawn)	82 ± 15 ng·h/mL	−66	1	−30	−9	[65] %	8 nM									
CCCCC(=O)O[C@]1(C(C)=O)CCC2C3C=C(C)C4=CC(=O)C[C@H](C)[C@]4(C)C3CC[C@@]21C (stereo partly drawn)		−122	−82	−27	−10	[42] %	31 nM	75 nM	−8	0	−35	−10				
CC(=O)[C@@]1(OC(=O)C2CCCC2)CCC2C3C=C(C)C4=CC(=O)C[C@H](C)[C@]4(C)C3CC[C@@]21C (stereo partly drawn)		−155	−68	−35	−12	[62] %	5.4 nM	128 nM	20	0	−40	−30				
CC(=O)[C@@]1(OC(=O)C(C)C)CCC2C3C=C(C)C4=CC(=O)CC[C@]4(C)C3CC[C@@]21C (stereo partly drawn)		−107	−60	−13	0	[27] %	3.7 nM	67 nM	−11	0	−84	−50				
CC(=O)[C@@]1(OC(=O)C(C)C)CC[C@H]2[C@@H]3C=C(C)C4=CC(=O)C[C@H](C)[C@]4(C)[C@H]3CC[C@@]21C		−122	−67	−30	13	[62] %	10.5 nM	82 nM	0	0	−48	−44				
COc1ccc(CC(=O)O[C@]2(C(C)=O)CCC3C4C=C(C)C5=CC(=O)CC[C@]5(C)C4CC[C@@]32C)cc1 (stereo partly drawn)	83 ± 16 ng·h/mL	66	−12	−33	10		9 nM		0	0	−71	−52				
CC(=O)[C@@]1(OC(=O)C(C)(C)C)CCC2C3C=C(C)C4=CC(=O)CC[C@]4(C)C3CC[C@@]21C (stereo partly drawn)		−117	−39	−41	−15	[20] %	7.2 nM		0	−12	−40	−26				
CCN(C)C(=O)[C@@]1(OC(=O)CCCCl)CCC2C3C=C(C)C4=CC(=O)CC[C@]4(C)C3CC[C@@]21C (stereo partly drawn)	130 ± 35 ng·h/mL	−104	−89	−12	−6	[45] %	5 nM	15.1 nM								
CCC(=O)O[C@]1(C(=O)N(C)C)CCC2C3C=C(C)C4=CC(=O)CC[C@]4(C)C3CC[C@@]21C (stereo partly drawn)	257 ± 81 ng·h/mL	−108	−25	−56	−25	[51] %	6 nM	535 nM								
CC(=O)[C@@]1(OC(=O)Cc2ccc(F)cc2)CCC2C3C=C(C)C4=CC(=O)CC[C@]4(C)C3CC[C@@]21C (stereo partly drawn)	33 ± 7 ng·h/mL	−89	−17	−24	−10		5 nM									
CCCC(=O)O[C@]1(C(=O)N(C)C)CCC2C3C=C(C)C4=CC(=O)CC[C@]4(C)C3CC[C@@]21C (stereo partly drawn)	58 ± 10 ng·h/mL	−113	−86	−45	−25	[80] %	5.8 nM	101 nM								
CC(=O)[C@@]1(OC(=O)CCCBr)CCC2C3C=C(C)C4=CC(=O)CC[C@]4(C)C3CC[C@@]21C (stereo partly drawn)	16 ± 5 ng·h/mL	−101	−83	−15	−17		3.5 nM	35 nM	−13	−9	−73	−67				
COC(=O)c1ccc2c(c1)CCC1C2CC[C@@]2(C)C1CC[C@@]21CCC(C)(C)C(=O)O1 (stereo partly drawn)													136 ± 33 ng·h/mL	−84%	> 10000 nM	25 nM
CCC(=O)O[C@]1(C(C)=O)CCC2C3C=C(C)C4=CC(=O)C=C[C@]4(C)C3CC[C@@]21C (stereo partly drawn)	18 ± 6.6 ng·h/mL	−111	−94	0	0	[59] %	3 nM	23 nM								
CC(=O)[C@@]1(OC(=O)Cc2ccccc2)CCC2C3C=C(C)C4=CC(=O)CC[C@]4(C)C3CC[C@@]21C (stereo partly drawn)			−45	−13	−19	[64] %	5.5 nM	193 nM	0	−8	−17	−23				
CCN(C)C(=O)[C@@]1(OC(C)=O)CCC2C3C=C(C)C4=CC(=O)CC[C@]4(C)C3CC[C@@]21C (stereo partly drawn)	252 ± 61 ng·h/mL	−71	7	−23	−15	[28] %	17 nM									
CCC(=O)O[C@]1(C(=O)N(C)Cc2ccccc2)CCC2C3C=C(C)C4=CC(=O)CC[C@]4(C)C3CC[C@@]21C (stereo partly drawn)	23 ± 5 ng·h/mL	−118	−32	−64	−23		11.6 nM									
CC(=O)[C@@]1(OC(=O)C(C)(C)C)CCC2C3C=C(C)C4=CC(=O)C[C@H](C)[C@]4(C)C3CC[C@@]21C (stereo partly drawn)		−106	15	−31	0	[32] %	31 nM	674 nM	11	0	−11	−25				
CC(=O)[C@@]1(OC(=O)C2CCCCC2)CCC2C3C=C(C)C4=CC(=O)CC[C@]4(C)C3CC[C@@]21C (stereo partly drawn)		−132	−79	−48	−31	[39] %	6.8 nM	93 nM	−13	−13	−48	−35				
CC1=CC2C(CC[C@@]3(C)C2CC[C@]3(OC(=O)C(C)C)C(=O)N(C)C)[C@@]2(C)CCC(=O)C=C12 (stereo partly drawn)	181 ± 28 ng·h/mL	−68	0	−42	−25	[73] %	4.1 nM									
CC(=O)[C@@]1(OC(=O)Cc2ccc(Cl)cc2)CC[C@H]2[C@@H]3C=C(C)C4=CC(=O)CC[C@]4(C)[C@H]3CC[C@@]21C	53 ± 23 ng·h/mL	−87	−21	−27	4		5.1 nM		19	0	−24	0				
